This assay has as its target ATG4b WT (full-length ATG4b) (human) (UniProt Q9Y4P1).

Take “LC3B-115 (residues 1-115) (from UniProt Q9GZQ8 1-115) (domain or fragment)”: the inhibition of cleavage of 1 uM pro-LC3B to LC3B-I by 50 nM ATG4b, increasing LC3B-115, mass spectrometry came to 15 nM.

(Values after publication PMC9631991.)
